A short description of this series: Water solubility. It counts as physicochemical. The settings on record: esters, values given in mM.

The substance “potassium salt of sulfoethyl ester of Naproxen” gave a solubility in water of 12.1 mM.

Source of the values: patent EP0461043A2, “Enantiomer separation by transesterification” (SEPRACOR, INC., priority 1990, dated 1991).
